For one compound, IC50 results are on record in US20240199677A1, “GLYCOSYLTRANSFERASE INHIBITORS” (CALIFORNIA INSTITUTE OF TECHNOLOGY, priority 2018, published 2024).

Protein sequences, listed by entry. Tags and fused reporters are not part of them. Lines headed by an entry give the natural chain unless they say otherwise; changes in a name come on top.
UniProt A0R211: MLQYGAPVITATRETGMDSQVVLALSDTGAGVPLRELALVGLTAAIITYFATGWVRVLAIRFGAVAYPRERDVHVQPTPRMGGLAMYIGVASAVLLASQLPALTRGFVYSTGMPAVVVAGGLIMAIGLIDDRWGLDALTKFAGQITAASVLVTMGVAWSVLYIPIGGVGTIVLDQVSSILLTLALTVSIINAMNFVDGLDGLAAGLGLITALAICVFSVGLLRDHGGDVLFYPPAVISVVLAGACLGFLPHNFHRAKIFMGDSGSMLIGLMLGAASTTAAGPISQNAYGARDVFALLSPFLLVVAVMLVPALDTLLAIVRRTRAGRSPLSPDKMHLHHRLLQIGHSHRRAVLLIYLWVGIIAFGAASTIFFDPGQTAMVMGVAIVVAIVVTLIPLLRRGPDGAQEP

The assay concerns the target M. smegmatis WecA (Mycolicibacterium smegmatis (strain ATCC 700084 / mc(2)155) (Mycobacterium smegmatis), UniProt A0R211). As to the kind of experiment: biochemical.

As usually defined, the IC50 is the concentration at which inhibition is half-maximal. Low values mean inhibition by little substance, high ones a need for much substance.

In turn, `NC[C@H]1O[C@@H](O[C@H]([C@H]2O[C@@H](n3ccc(=O)[nH]c3=O)[C@H](O)[C@@H]2O)[C@H](NCCCC(=O)NCc2ccc(N3CCC(Oc4ccc(C(F)(F)F)cc4)CC3)cc2)C(N)=O)[C@H](O)[C@@H]1O` [Compound 11] gave an IC50 of 250 nM. In other words, the sub-micromolar range.
